The experiment concerns gene expression in the pituitary. Nature of the experiment: GeneChip microarray survey of E2 regulated gene expression, pituitary. Conditions: mouse, in vivo. The source says:
One week later, the animals were ovariectomized.

Take estrogen: the “Kallikrein-9 expression in pituitary” value is listed as “induced”.
